We go through two compounds from ChEMBL document CHEMBL1138911 (Bioorg Med Chem Lett, 2006).

The chains behind the UniProt entries cited, without tags or fusion partners. Where a name states a change or a piece, a line headed by the entry shows the natural chain unless it says otherwise.
UniProt P41145: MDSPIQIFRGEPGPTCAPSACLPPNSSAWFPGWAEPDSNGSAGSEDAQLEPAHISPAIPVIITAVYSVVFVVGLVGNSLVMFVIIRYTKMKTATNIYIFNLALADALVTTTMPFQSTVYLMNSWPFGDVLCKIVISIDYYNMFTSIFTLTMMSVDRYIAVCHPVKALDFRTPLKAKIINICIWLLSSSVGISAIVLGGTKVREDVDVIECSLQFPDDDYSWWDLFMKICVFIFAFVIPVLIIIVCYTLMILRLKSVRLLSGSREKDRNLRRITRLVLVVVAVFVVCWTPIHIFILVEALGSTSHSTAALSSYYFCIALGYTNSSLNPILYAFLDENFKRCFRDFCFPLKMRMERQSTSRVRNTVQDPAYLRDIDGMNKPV

The test system of one experiment is Brain. Briefly: Stimulation of [35S]GTPgammaS binding in human brain cortical membrane relative to control.
Experiment [1] has as its target Kappa-type opioid receptor (Homo sapiens) (UniProt P41145). Briefly: Ratio for stimulation of [35S]GTP-gamma-S binding to kappa opioid receptor in human brain cortical membrane in absence to presence of norBNI. (In general: GTPγS resists hydrolysis and so accumulates on activated G proteins.)

For `CN(C(=O)Cc1ccccc1)[C@H]1CC[C@@]2(CCCO2)C[C@@H]1N1CCCC1`, the Activity in the experiment on Brain stood at 13.4%. In addition, in experiment [1], the Ratio worked out at 15.9. For the compound `CO[C@]12CC[C@@]3(C[C@@H]1[C@@](C)(O)C1CCC1)C1Cc4ccc(O)c5c4[C@@]3(CCN1CC1CC1)[C@H]2O5`, the Activity with Brain came out at 7.2%.
